Biological target: IMPDHbt (Burkholderia thailandensis, UniProt Q2SWW9)
Assay: ATP-γ-AmNS fluorescence and fluorescence anisotropy binding
Details: fluorescence intensity, emission maximum and anisotropy unchanged

Chains of the proteins cited; added tags and fusions are not shown. Lines headed by an entry give the natural chain unless they say otherwise; changes in a name come on top.
UniProt Q2SWW9: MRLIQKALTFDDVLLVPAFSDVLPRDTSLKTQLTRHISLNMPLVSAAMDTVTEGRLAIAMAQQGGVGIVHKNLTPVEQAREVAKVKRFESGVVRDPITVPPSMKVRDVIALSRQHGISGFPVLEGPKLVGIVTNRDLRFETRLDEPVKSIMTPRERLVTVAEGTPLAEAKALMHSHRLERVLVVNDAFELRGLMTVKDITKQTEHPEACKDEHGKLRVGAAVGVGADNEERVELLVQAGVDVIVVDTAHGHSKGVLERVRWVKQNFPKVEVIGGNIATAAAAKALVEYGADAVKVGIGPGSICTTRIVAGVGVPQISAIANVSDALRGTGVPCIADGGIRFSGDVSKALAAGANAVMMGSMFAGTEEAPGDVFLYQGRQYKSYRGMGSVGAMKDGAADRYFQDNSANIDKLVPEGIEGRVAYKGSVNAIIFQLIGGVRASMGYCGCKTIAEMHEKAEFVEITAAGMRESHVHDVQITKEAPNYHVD

Adenosine-5′-triphosphate-γ-(sulfo-1-naphtyl)amide, triethylammonium salt
binding of ATP-γ-AmNS to the enzyme: does not bind

— publication PMC4338043, “Two Classes of Bacterial IMPDHs according to Their Quaternary Structures and Catalytic Properties” (2015)
